Here are results for one compound from ChEMBL document CHEMBL3822423 (J Med Chem, 2016).

By UniProt entry, the sequences of proteins in these tests, tags left out. Residues count along the entry.
UniProt P02768, 25-609 limits assumed: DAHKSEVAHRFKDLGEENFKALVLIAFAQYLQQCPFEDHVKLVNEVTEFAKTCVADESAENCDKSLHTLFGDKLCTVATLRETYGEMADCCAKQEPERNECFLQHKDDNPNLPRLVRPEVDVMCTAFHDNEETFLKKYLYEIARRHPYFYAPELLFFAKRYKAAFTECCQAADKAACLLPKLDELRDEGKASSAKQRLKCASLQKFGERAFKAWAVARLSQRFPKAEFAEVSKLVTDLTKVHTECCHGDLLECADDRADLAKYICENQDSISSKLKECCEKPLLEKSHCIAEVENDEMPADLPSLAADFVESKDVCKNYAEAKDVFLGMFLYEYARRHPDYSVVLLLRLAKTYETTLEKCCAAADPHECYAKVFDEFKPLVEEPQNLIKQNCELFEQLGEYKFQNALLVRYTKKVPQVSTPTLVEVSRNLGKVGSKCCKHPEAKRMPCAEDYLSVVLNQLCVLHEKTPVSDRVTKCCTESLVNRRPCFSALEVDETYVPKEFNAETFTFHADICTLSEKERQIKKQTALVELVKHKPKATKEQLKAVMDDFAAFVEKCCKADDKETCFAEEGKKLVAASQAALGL

Each structure is given as a SMILES string.

Holding throughout (settings): isolated protein
Data set [1] has as its target T1, Albumin (Homo sapiens, UniProt P02768). The experiment in a line: Binding affinity to human serum albumin at pH 7.4 at 288 K by Stern-Volmer plot analysis.
The target of data set [2] is T1, Albumin. The experiment in a line: Binding affinity to human serum albumin at pH 7.4 at 303 K by Stern-Volmer plot analysis.
The target of data set [3] is T1, Albumin. The experiment in a line: Binding affinity to human serum albumin at pH 7.4 at 310 K by Stern-Volmer plot analysis.

Regarding `CCn1cc(-c2csc(N)n2)c(=O)c2cc(N3CCCC3)c(Cl)cc21`, the Ka was found to be 1.47 ×10⁵ L/mol at Albumin [1], 1.39 ×10⁵ L/mol at Albumin [2] and 1.37 ×10⁵ L/mol at Albumin [3].
